Antibody variant affinities, Ab-95 light chain, assay 2

Reference: Engelhart et al. 2022, doi:10.1038/s41597-022-01779-4. File: FLAb, binding data.

Target: peptide PDVDLGDISGINAS, taken from heptad repeat 2 (HR2) of SARS-CoV-2 spike.

The variants keep the heavy chain, the linker and the frameworks of Ab-95 (scFv order VH, a 15-residue (Gly4Ser)3 linker, VL).
VH: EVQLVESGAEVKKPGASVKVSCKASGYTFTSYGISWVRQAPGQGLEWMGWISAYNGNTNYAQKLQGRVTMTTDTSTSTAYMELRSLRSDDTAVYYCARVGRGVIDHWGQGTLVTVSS
VL: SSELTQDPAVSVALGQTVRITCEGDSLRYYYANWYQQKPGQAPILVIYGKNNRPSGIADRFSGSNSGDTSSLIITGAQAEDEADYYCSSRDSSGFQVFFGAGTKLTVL

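The starting antibody came from a phage panning campaign against this peptide. In library AAYL52, one, two or three CDR residues were substituted; doubles and triples were drawn at random. In AlphaSeq, yeast of one mating type display the scFv and yeast of the other type display the target. After mating in shaken culture at 30 °C for 16 h, diploids were selected and their barcode pairs sequenced. The ratio of observed to expected reads was calibrated, replicate by replicate, on BCL2-family standards whose Kd was known from biolayer interferometry. The assay was run in three technical replicates.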

Positions count from residue 1 of the parent VL; D25Y puts Y in place of D.
The read-out is the apparent dissociation constant on a log10 scale (nM): the lower, the stronger.
Averages over replicates are reported, and they cover detected replicates only.
"nd" means that the variant was in the library but no mating with the target was seen in that replicate; the authors take this as a sign of poor binding, and no number exists.
Background: pairings of library AAYL52 with three empty control strains gave a value in 28% of cases (median 3.91, 5th percentile 2.90). Values in that range, when seen in few replicates, are hard to tell from nonspecific mating. The control count says in how many pairings with the empty strains this scFv gave a signal, with their mean in brackets.

changes,log10 Kd (nM) by replicate,"log10 Kd (nM), mean",empty controls
D25Y+A32K+F98R,4.36 3.77 4.64,4.26,3 of 9 (4.44)
K50W+F95R+Q96C,nd nd nd,nd,1 of 9 (4.02)
Y30S+D91E+S92D,2.12 2.35 1.87,2.11,3 of 9 (3.83)
S89Q+S92T+S93T,2.18 1.93 1.45,1.85,3 of 9 (3.12)
P54V+S92I+G94L,3.03 3.58 2.68,3.10,2 of 9 (3.96)
S55H+R90P+F98G,2.98 3.23 3.13,3.11,2 of 9 (3.86)
R28D+D91C+F95N,2.47 3.03 2.21,2.57,2 of 9 (3.56)
Y30L+P54A+S55W,3.54 3.01 3.74,3.43,2 of 9 (3.77)
D25A+S89L+R90I,2.01 2.04 1.32,1.79,2 of 9 (3.59)
Y30C+S88A+V97K,4.76 2.72 4.03,3.84,2 of 9 (3.18)
S88M+S89R+Q96P,nd nd nd,nd,1 of 9 (4.00)
S26W+R28L,4.10 nd 3.86,3.98,2 of 9 (3.62)
K50P+S89V+F98H,2.22 1.86 1.77,1.95,3 of 9 (4.21)
Y29A+P54V+R90H,2.59 2.29 3.00,2.63,1 of 9 (2.61)
A32N+N33T+Q96A,nd nd nd,nd,0 of 9
R28F+Y30D+F95H,1.51 1.19 0.94,1.21,5 of 9 (4.30)
K50S+N51G+G94N,3.04 3.31 2.04,2.80,3 of 9 (3.96)
R53N+F95W+Q96H,5.87 nd nd,5.87,2 of 9 (3.81)
Y29K+S88F+F95V,4.22 nd nd,4.22,1 of 9 (3.79)
G24Y+F95Y+F98T,2.93 3.00 2.58,2.84,1 of 9 (3.34)
Y30T+N52I+V97W,1.65 1.43 0.91,1.33,4 of 9 (4.39)
N33A+S55E+S93E,nd 5.58 nd,5.58,2 of 9 (4.20)
L27S+S89N+Q96A,nd 4.24 nd,4.24,1 of 9 (3.19)
E23M+S26Q,3.15 3.76 3.73,3.55,3 of 9 (4.80)
S88V+R90A,2.62 2.44 2.05,2.37,6 of 9 (3.87)
R90T+S92G+V97A,nd 4.60 nd,4.60,3 of 9 (4.41)
D91A+S93K+G94W,nd nd 3.84,3.84,1 of 9 (4.16)
R28I+S55P+G94C,3.76 4.67 nd,4.22,2 of 9 (4.65)
D91N+S92C+F98M,3.73 2.96 3.81,3.50,4 of 9 (4.21)
Y30D+K50I,2.19 2.10 2.03,2.11,1 of 9 (4.54)
Y29L+K50I+S89N,nd nd nd,nd,2 of 9 (3.95)
D25C+L27M+V97P,4.70 nd 3.49,4.09,1 of 9 (3.98)
N33I+N52S,2.39 2.33 2.94,2.55,1 of 9 (4.45)
S55D+S89E+V97M,nd nd nd,nd,1 of 9 (3.62)
D25P+S26V+S88D,5.60 nd nd,5.60,1 of 9 (3.67)
A32I+P54W+S55E,nd nd 3.46,3.46,5 of 9 (3.93)
S26R+A32N+K50S,1.55 1.79 1.52,1.62,2 of 9 (4.04)
Y31G+N33G+S89L,nd nd nd,nd,1 of 9 (3.72)
G24Y+S26V+N52F,3.93 nd 4.10,4.01,4 of 9 (3.65)
R28N+Y29M+N33G,4.43 3.78 nd,4.11,3 of 9 (3.96)
Y31P+R90N,1.70 1.54 1.78,1.67,2 of 9 (4.02)
G24Y+G49F+F98S,nd 3.23 nd,3.23,1 of 9 (3.67)
N52S+F95A+Q96M,3.30 3.17 4.07,3.51,3 of 9 (3.87)
G49I+R90A+V97G,3.60 nd nd,3.60,1 of 9 (4.10)
N51Q+R53P+Q96D,3.07 nd nd,3.07,2 of 9 (4.31)
Y29M+K50F+S92A,3.17 nd 3.27,3.22,1 of 9 (4.29)
E23T+N33R+Q96A,3.15 3.01 3.12,3.09,2 of 9 (4.79)
Y31G+S89D+R90E,2.19 2.40 2.85,2.48,5 of 9 (4.29)
L27P+Y31C+A32H,nd nd nd,nd,2 of 9 (3.91)
E23S+G49K+S55W,4.08 4.30 4.13,4.17,5 of 9 (3.56)
Y29H+S55R+R90D,2.85 3.02 nd,2.94,2 of 9 (3.61)

The last 4 entries again:

changes,log10 Kd (nM) by replicate,"log10 Kd (nM), mean",empty controls
Y31G+S89D+R90E,2.19 2.40 2.85,2.48,5 of 9 (4.29)
L27P+Y31C+A32H,nd nd nd,nd,2 of 9 (3.91)
E23S+G49K+S55W,4.08 4.30 4.13,4.17,5 of 9 (3.56)
Y29H+S55R+R90D,2.85 3.02 nd,2.94,2 of 9 (3.61)